Each structure is given as a SMILES string.

This assay has as its system human TMXR MCF7 cells. The experiment in a line: TMXR MCF7 mammary fat pad xenograft in NSG mice. Format: in vivo. Conditions: TMXR MCF7, oral gavage 5 days on/2 days off; MPT 35 mg/kg, TMX 4.2 mg/kg, CPP 3 mg/kg.

With `CC/C(=C(\c1ccccc1)c1ccc(OCCN(C)C)cc1)c1ccccc1` [TMX, tamoxifen], the tumor growth entry is listed as “Tumors grew rapidly”.
